Molecules are shown by their SMILES. Where “and” joins values, the source holds several entries; their conditions need not be identical. Identical values can stand only once. Only a part is listed here, and it is no random draw. Results filed as inconclusive are left out. Calls of active or inactive are those of the source. The call rests on the fitted dose curve.
On the % scale 0 is the no-effect control and ±100 the full control effect.

One assay can be described thus: cAMP Responsive Elements (CRE) small molecule agonists, cell-based qHTS assay (AID 1963590). The note with it: CRE-bla HEK293T, beta-lactamase FRET ratio, 3 h; at 42.5 µM (top of the series). From the text:
U.S. Tox21 Program National Center for Advancing Translational Sciences [NCATS] Division of Preclinical Innovation [DPI] U.S. Environmental Protection Agency [EPA] National Institutes of Environmental Health Sciences [NIEHS] National Toxicology Program [NTP] U.S. Food and Drug Administration [FDA] Tox21 Assay Overview: CREB (cyclic-AMP Responsive Element Binding Protein) is a cellular transcription factor. It binds to certain DNA sequences called cAMP Responsive Elements (CRE) and regulates the transcription of the genes. […] This cell line can be used to find agonists/antagonists of the cyclic AMP signaling pathway. The activation of the report gene under culture conditions can be detected by fluorescence intensity. This cell line has been used to screen the Tox21 10K compound library to identify agonists that induce oxidative stress.
Tox21 Assay Protocol Summary: CRE-bla Hek 293T cells were suspended in assay medium (DMEM containing 10% dialyzed FBS, 0.1 mM NEAA, 1 mM sodium pyruvate and 25 mM HEPES) and dispensed at 2,000 cells/5 uL /well into 1536-well black wall/clear bottom plates using a Multidrop Combi (ThermoFisher Scientific, Waltham, MA) dispenser. After the assay plates were incubated at 37 C/5% CO2 for 18 hrs, 23 nL of compounds dissolved in DMSO, positive controls or DMSO only was transferred to the assay plate by a pintool workstation (Kalypsys, San Diego, CA). After the plates were incubated at 37 C/5% CO2 for 3 hrs, 1 uL of LiveBLAzer B/G FRET substrate (Invitrogen, Carlsbad, CA) was added to each well using Bioraptr Flying Reagent Dispenser (FRD, Aurora Discovery, San Diego, CA). The plates were incubated at room temperature for 2 h.
`CCOP(=O)(CC)Oc1ccc([N+](=O)[O-])cc1` (stereo not given): the activation is inactive: 0.436%.

Consider `C/C1=C2N=C(/C=C3N=C(/C(C)=C4\[N-][C@@](C)([C@@H]5N=C1[C@](C)(CCC(=O)NC[C@@H](C)OP(=O)([O-])O[C@H]1[C@@H](O)[C@@H](n6cnc7cc(C)c(C)cc76)O[C@@H]1CO)[C@H]5CC(N)=O)[C@@](C)(CC(N)=O)[C@@H]4CCC(N)=O)[C@@](C)(CC(N)=O)[C@@H]\3CCC(N)=O)C(C)(C)[C@@H]/2CCC(N)=O.[C-]#N.[Co+3]`, for which the activation is inactive: 0.508%.

For the compound `OCCSCCO`, the activation was inactive: 0.379%.

Staying with this assay, now noted: CRE-bla HEK293T, beta-lactamase FRET ratio, 3 h; at 92.4 µM (top of the series).
For `CP(=O)(O)OCCC[Si](O)(O)O`, the activation was inactive: 0.338%.

`Cc1ccc([N+](=O)[O-])cc1[N+](=O)[O-]`: the activation was inactive: 1.09% and inactive: -1.98%.

On to `COc1ccc([N+](=O)[O-])cc1[N+](=O)[O-]`, for which the activation is inactive: 0.119%.

On to `O=[N+]([O-])c1cccc([N+](=O)[O-])c1`, for which the activation was inactive: -1.62%.

For `N#CBr`, the activation is inactive: -0.619%.

For `O=[N+]([O-])[O-].[NH4+]`, the activation was inactive: -0.0665% and inactive: 0.319%.

As for `[NH4+].[O-][Cl+3]([O-])([O-])[O-]`, the activation was inactive: -0.544% and inactive: -0.111%.

For the compound `CC(C)OP(C)(=O)OC(C)C`, the activation is inactive: -0.805% and inactive: 0.0652%.

Take `CN(C)CCCl`: the activation is inactive: -0.301%.

Turning to `COP(C)(=O)OC`, the activation is inactive: -0.543% and inactive: 0.642%.

As to `O=[N+]([O-])OCC(CO[N+](=O)[O-])(CO[N+](=O)[O-])CO[N+](=O)[O-]`, the activation is inactive: 0.126%.

On to `OCCSCCO`, for which the activation is inactive: 3.49%.

`Cc1c([N+](=O)[O-])cccc1[N+](=O)[O-]`: the activation was inactive: 3.9% and inactive: 0.14%.

For the compound `N=C(N)N[N+](=O)[O-]`, the activation is inactive: -0.76%.

Regarding `CCOP(=O)(CC)OCC`, the activation is inactive: -1.57%.

Consider `CC(C)N(CCO)C(C)C`, for which the activation is inactive: 1.26%.

Consider `CCN(CC)CCCl`, for which the activation is inactive: 0.16%.

(Values after PubChem BioAssay (Tox21).)
